Test results from the NIST ThermoML archive (doi:10.1016/j.jct.2015.02.004).
Numbers after ± are expanded uncertainties.

Experiments:
[1] = Crystal; DTA
[2] = Molar enthalpy of transition or fusion; details: Crystal; DSC

Normal melting temperature [1]: 132.2 ± 0.7 °C | Molar enthalpy of transition or fusion [2]: 4.48 ± 0.287 kcal/mol
SMILES: C/C=C/C=C/C(=O)O [2,4-hexadienoic acid]
